Inhibition data for 57 molecules are collected here from PubChem BioAssay AID504414 (Broad Institute, 2011).

Only a part is listed here, and it is no random draw. Activity calls are given as the source filed them.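 How the source made its calls: active means highest replicate inhibition of at least 40%; inactive means the rest.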

Broadly, the inhibition is the drop in the measured response relative to a control, in per cent.

The target of this assay is Golgi-associated PDZ and coiled-coil motif-containing protein (Homo sapiens) (UniProt Q9HD26). The assay can be described thus: CAL PDZ peptide-binding inhibitors, primary screen, biochemical, fluorescence polarization, Cer-tagged CAL PDZ, HTS (AID 504414).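 Further: plate controls were DMSO neutral control wells for no effect and unlabeled competitor peptide control wells for full effect.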 Conditions: purified CAL PDZ, TMR-peptide fluorescence polarization, 1 h; at 20 µM; stronger effect = higher value. On the technique in general: Fluorescence polarisation rises when a labelled molecule tumbles more slowly, as on binding a larger partner.
Turning to `Cc1cc(SC(NC=O)C(Cl)(Cl)Cl)ncn1` (configuration not stated), the inhibition was inactive: -1.07%.

`O=P(Nc1ccccn1)(c1cccc2ccccc12)c1cccc2ccccc12`: the inhibition is inactive: -0.83%.

Turning to `O=[N+]([O-])c1ccc(Nc2ccc(Oc3ccc([N+](=O)[O-])cc3[N+](=O)[O-])cc2)c([N+](=O)[O-])c1`, the inhibition was inactive: -0.529%. The result for `CCOC(=O)Nc1ccc([As](=O)(O)O)c(O)c1` reads inactive: -0.274%. With `CC1CCNP(=O)(N(CCCl)CCCl)O1` (configuration not stated) the figure was inactive: 26%; with `CCCCOc1ccc(C(=O)NCC2(N3CCCCC3)CCCCC2)cc1OC`, inactive: -4.48%. With `Cc1cc(SC(NC(=O)c2ccccc2)C(Cl)(Cl)Cl)nc(C(C)C)n1` (configuration not stated) the figure was inactive: 0.258%; with `O=C(OC1CN2CCC1CC2)c1cccc([N+](=O)[O-])c1` (configuration not stated), inactive: -0.851%; with `CCOC(=O)c1ccc(NC(=O)C(C)(CCl)SC)cc1` (configuration not stated), inactive: -0.725%. In the case of `CCC(C)N(CC(C)C)C(=S)SC(NC(C)=O)C(Cl)(Cl)Cl` (configuration not stated), the inhibition was inactive: 0.248%. The result for `COP1(=S)c2c(C)nn(CCC#N)c2N=C(c2ccc(F)cc2)N1C` (configuration not stated) reads inactive: -1.22%; that for `O=C(COc1ccccc1)OC1CN2CCC1CC2` (configuration not stated), inactive: -2.54%. The result for `O=C(Nc1ccncc1[N+](=O)[O-])c1ccc([N+](=O)[O-])cc1[N+](=O)[O-]` reads inactive: -0.153%; that for `COc1ccccc1CNC(=O)COC(=O)C(O)(c1ccccc1)c1ccccc1`, inactive: -0.307%.

`CN(C(=O)Cc1ccc(Cl)c(Cl)c1)[C@@H]1CCCC[C@H]1N1CCCC1`: the inhibition was inactive: -0.256%. The result for `CC(C)/C=N\N=C(\N)N[N+](=O)[O-]` reads inactive: -1.08%; that for `CC1(CBr)Cn2c(nc3ccccc3c2=O)S1` (configuration not stated), inactive: -0.64%; that for `CCC1=CC2Cc3nc4ccc(Cl)cc4c(N)c3C(C1)C2` (configuration not stated), inactive: -10.3%. For `O=P1(Nc2ccccn2)COc2ccccc2OC1`, the inhibition was inactive: -0.109%. With `CCOP(=O)(NC(=NC(C)c1ccccc1)NC(C)c1ccccc1)OCC` (configuration not stated) the figure was inactive: -0.433%; with `CCOP(=O)(Nc1ccc(C)cn1)OCC`, inactive: -0.414%; with `Clc1n[nH]nc1-c1nn[nH][15n]1`, inactive: -1.75%. With `CC(C)(C)C(=O)NC(Sc1ncccn1)C(Cl)(Cl)Cl` (configuration not stated) the figure was inactive: -2.22%. The result for `O=P1(Nc2ncccn2)COc2ccccc2OC1` reads inactive: -0.588%.

As for `Nc1cccc([As](=O)(O)c2ccccc2)c1`, the inhibition is inactive: -0.2%.

In the case of `O=[As](O)(c1cccs1)c1cccs1`, the inhibition is inactive: 0.775%. The result for `Cc1ccc(OCC(=O)OC2CN3CCC2CC3)cc1` (configuration not stated) reads inactive: -3.68%.

For the molecule `NS(=O)(=O)c1cccc(NC(=O)COC(=O)C(O)(c2ccccc2)c2ccccc2)c1`, the inhibition is inactive: -0.643%. The result for `O=P1(Nc2ccc(Br)cn2)COc2ccccc2OC1` reads inactive: -1.29%; that for `Cc1nn(-c2ccccc2)c2c1P(=O)(N1CCOCC1)N(C)C(c1ccccc1)=N2` (configuration not stated), inactive: -0.645%. The result for `Cc1ccc(C(=O)OC2CN3CCC2CC3)cc1` (configuration not stated) reads inactive: -0.192%.

Turning to `CC1CCC(C(C)C)C(OP(=O)(Nc2ccccn2)c2ccccc2)C1` (configuration not stated), the inhibition was inactive: -4.75%. The result for `CN(C)C1(CNC(=O)c2ccc(S(C)(=O)=O)cc2)CCCCC1` reads inactive: -0.624%; that for `O=C(/C=C/c1ccccc1)OC1CN2CCC1CC2` (configuration not stated), inactive: -1.28%.

`CCCC1OP(=O)(Nc2ccccc2)OCC1CC` (configuration not stated): the inhibition was inactive: -1.37%.

On to `NC(=O)Nc1ccc([As](=O)(O)O)cc1`, for which the inhibition is inactive: 0.354%.

For `N#CCCN(C(=O)COC(=O)C(O)(c1ccccc1)c1ccccc1)c1ccc(F)cc1`, the inhibition is inactive: -1.74%.

Turning to `CN(C(=O)Cc1ccccc1)[C@@H]1CC[C@]2(CCCO2)C[C@H]1N1CCCC1`, the inhibition was inactive: -0.33%. The result for `CCOP1(=S)c2c(C)nn(CCC#N)c2N=C(c2ccc(F)cc2)N1C` (configuration not stated) reads inactive: -0.0185%. With `CN(C)C(=O)c1cc([N+](=O)[O-])cc2c1-c1c(cc([N+](=O)[O-])cc1[N+](=O)[O-])C2=O` the figure was inactive: 0.968%; with `CN(C(=O)Cc1ccc(Cl)c(Cl)c1)[C@H]1CC[C@@]2(CCCO2)C[C@@H]1N1CCCC1`, inactive: -1.47%. The result for `CCOP1(=S)c2c(C)nn(CCC#N)c2N=C(c2ccccc2F)N1C` (configuration not stated) reads inactive: -2.61%; that for `O=P(Nc1nccs1)(Oc1ccccc1)Oc1ccccc1`, inactive: 0.669%. On to `O=P(Nc1nccs1)(c1ccccc1)c1nc2ccccc2s1` (configuration not stated), for which the inhibition was inactive: -0.032%. Consider `CS(=O)(=O)c1cc([N+](=O)[O-])c2no[n+]([O-])c2c1`, for which the inhibition was inactive: 0.0772%.

For the molecule `O=C(O)COc1ccc([As](=O)(O)O)cc1[N+](=O)[O-]`, the inhibition was inactive: -0.86%.

Take `Nc1ccccc1[As](=O)(O)c1ccccc1`: the inhibition is inactive: -0.152%. With `Cc1ccc(NCCc2c([N+](=O)[O-])cc([N+](=O)[O-])cc2[N+](=O)[O-])cc1` the figure was inactive: -0.202%.

Take `CCCOP(=S)(Nc1nc(N)cc(=O)[nH]1)OCCC`: the inhibition is inactive: -1.43%. The result for `COc1cc(C2NCCC3(OCCO3)C2(C)C)cc(OC)c1OC` (configuration not stated) reads inactive: -0.664%. As for `CCOP(=O)(Nc1cccc2ccccc12)OCC`, the inhibition was inactive: -2.9%. The result for `O=C(OC1CN2CCC1CC2)c1ccc(Cl)cc1` (configuration not stated) reads inactive: -0.746%; that for `O=[As](O)(O)c1cccnc1`, inactive: -0.331%. The result for `COc1cc(C(=O)NCC2(N3CCOCC3)CCCCC2)cc(Cl)c1OC(C)C` reads inactive: -1.23%; that for `CS(=O)(=O)c1ccc(Cl)c(NC(=O)COC(=O)C(O)(c2ccccc2)c2ccccc2)c1`, inactive: -1.19%. With `Cc1cccc(OCC(=O)OC2CN3CCC2CC3)c1` (configuration not stated), the inhibition is inactive: -0.892%. With `O=[As](O)(c1cccc(O)c1)c1cccc(O)c1` the figure was inactive: 0.0975%.
